From patent US20080076729A1, “Interferon-beta gene therapy using an improved, regulated expression system” (Schering Aktiengesellachaft, priority 2005, published 2008)

Experiments:
[1] = mice, rats and monkeys; cited from earlier work
[2] = Pharmacokinetic study of bolus recombinant hIFN-β1a protein, serum hIFN-β by ELISA

## PEGylated form of IFN-β1a: IFN-β1a with attachment of a 20-kDa polymer of polyethylene glycol [reference compound]
[1]
  half-life: 10 h

## hIFN-β1a: recombinant human interferon-β 1a protein
[1]
  half-life: approximately 1 hours
[2]; i.v. and i.m., 250 ng vs 25 ng
  difference in serum hIFN-β1a level between the high and low dose: 10 fold
[2]; single i.m. injection
  decrease of hIFN-β1a serum level from maximum by 6 hours: approximately 10 fold
[2]; single i.m. injection, 25 ng or 250 ng
  time at which hIFN-β1a serum level reached a maximum level post-injection: 2 h
[2]; single i.v. injection, LOD=12.5 pg/ml
  hIFN-β1a serum level by 6 hours: near the limit of detection
